This passage reports IC50 results from US20090099157A1, “TETRAHYDRO-PYRAZOLO-PYRIDINE THIOETHER MODULATORS OF CATHEPSIN S” (priority 2007, published 2009).

Chains of the proteins cited; added tags and fusions are not shown. Residues count along the entry.
UniProt P25774, 115-331: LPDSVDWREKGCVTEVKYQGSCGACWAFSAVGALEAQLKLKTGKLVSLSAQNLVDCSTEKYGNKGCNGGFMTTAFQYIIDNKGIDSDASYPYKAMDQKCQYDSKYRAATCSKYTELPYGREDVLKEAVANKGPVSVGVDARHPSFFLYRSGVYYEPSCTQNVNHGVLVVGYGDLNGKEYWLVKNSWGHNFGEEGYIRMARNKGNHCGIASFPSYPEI

This test deals with Recombinant human cathepsin S (CatS) (Homo sapiens, UniProt P25774). Description: biochemical.

For the molecule `CS(=O)(=O)N1CCc2c(c(-c3ccc(C(F)(F)F)c(SCC(=O)N4CCCCC4)c3)nn2CC(O)CN2CCC(N3CCOCC3)CC2)C1` (stereo not drawn) [Example 264, 1-[5-(Methylsulfonyl)-3-{3-[(2-oxo-2-piperidin-1-ylethyl)sulfanyl]-4-(trifluoromethyl)phenyl}-4,5,6,7-tetrahydro-1H-pyrazolo[4,3-c]pyridin-1-yl]-3-(4-morpholin-4-ylpiperidin-1-yl)propan-2-ol], the IC50 came out at 80 nM.

In the case of `CC(=O)N1CCN(CCSc2cc(-c3nn(CC(O)CN4CCC(O)(c5ccccn5)CC4)c4c3CN(S(C)(=O)=O)CC4)ccc2C(F)(F)F)CC1` (stereo not drawn) [Example 858, 1-(3-{3-[3-{[2-(4-Acetylpiperazin-1-yl)ethyl]sulfanyl}-4-(trifluoromethyl)phenyl]-5-(methylsulfonyl)-4,5,6,7-tetrahydro-1H-pyrazolo[4,3-c]pyridin-1-yl}-2-hydroxypropyl)-4-pyridin-2-ylpiperidin-4-ol], the IC50 was 230 nM.

Regarding `CS(=O)(=O)N1CCc2c(c(-c3ccc(C(F)(F)F)c(SCCN4CCC(F)CC4)c3)nn2C[C@@H](O)CN2CC=CCC2)C1` [Example 204, (2S)-1-(3,6-Dihydropyridin-1(2H)-yl)-3-{3-[3-{[2-(4-fluoropiperidin-1-yl)ethyl]sulfanyl}-4-(trifluoromethyl)phenyl]-5-(methylsulfonyl)-4,5,6,7-tetrahydro-1H-pyrazolo[4,3-c]pyridin-1-yl}propan-2-ol], the IC50 amounted to 190 nM.

With `CC1CCN(CCSc2cc(-c3nn(C[C@@H](O)CN4CCC(C)CC4)c4c3CN(S(C)(=O)=O)CC4)ccc2C(F)(F)F)CC1` [Example 444, (2S)-1-(4-Methylpiperidin-1-yl)-3-{3-[3-{[2-(4-methylpiperidin-1-yl)ethyl]sulfanyl}-4-(trifluoromethyl)phenyl]-5-(methylsulfonyl)-4,5,6,7-tetrahydro-1H-pyrazolo[4,3-c]pyridin-1-yl}propan-2-ol], the half-maximal inhibitory concentration (IC50) turned out to be 180 nM.

Regarding `CC1C(=O)NCCN1CC(O)Cn1nc(-c2ccc(C(F)(F)F)c(SCCN3CCOCC3)c2)c2c1CCN(S(C)(=O)=O)C2` (stereo not drawn) [Example 459, 4-{2-Hydroxy-3-[5-(methylsulfonyl)-3-{3-[(2-morpholin-4-ylethyl)sulfanyl]-4-(trifluoromethyl)phenyl}-4,5,6,7-tetrahydro-1H-pyrazolo[4,3-c]pyridin-1-yl]propyl}-3-methylpiperazin-2-one], the IC50 was 2990 nM.

With `CC1CCN(CC(O)Cn2nc(-c3ccc(C(F)(F)F)c(SCC(=O)N4CCCC4)c3)c3c2CCNC3)CC1` (stereo not drawn) [Example 293, 1-(4-Methylpiperidin-1-yl)-3-(3-{3-[(2-oxo-2-pyrrolidin-1-ylethyl)sulfanyl]-4-(trifluoromethyl)phenyl}-4,5,6,7-tetrahydro-1H-pyrazolo[4,3-c]pyridin-1-yl)propan-2-ol], the IC50 is 2540 nM.

On to `O[C@@H](CN1CCN(c2ccccc2F)CC1)Cn1nc(-c2ccc(C(F)(F)F)c(SCCN3CCC(F)CC3)c2)c2c1CCNC2` [Example 498, (2S)-1-[4-(2-Fluorophenyl)piperazin-1-yl]-3-{3-[3-{[2-(4-fluoropiperidin-1-yl)ethyl]sulfanyl}-4-(trifluoromethyl)phenyl]-4,5,6,7-tetrahydro-1H-pyrazolo[4,3-c]pyridin-1-yl}propan-2-ol], for which the IC50 came out at 400 nM.

In the case of `CS(=O)(=O)N1CCc2c(c(-c3ccc(C(F)(F)F)c(SCCN4CCC(C(N)=O)CC4)c3)nn2C[C@@H](O)CN2CCCCC2)C1` [Example 218, 1-(2-{[5-{1-[(2S)-2-Hydroxy-3-piperidin-1-ylpropyl]-5-(methylsulfonyl)-4,5,6,7-tetrahydro-1H-pyrazolo[4,3-c]pyridin-3-yl}-2-(trifluoromethyl)phenyl]sulfanyl}ethyl)piperidine-4-carboxamide], the 50% inhibitory concentration (IC50) turned out to be 520 nM.

Turning to `CCOC(=O)NC1CCN(CC(O)Cn2nc(-c3ccc(C(F)(F)F)c(SCCN4CCOCC4)c3)c3c2CCN(S(C)(=O)=O)C3)CC1` (stereo not drawn) [Example 698, Ethyl (1-{2-hydroxy-3-[5-(methylsulfonyl)-3-{3-[(2-morpholin-4-ylethyl)sulfanyl]-4-(trifluoromethyl)phenyl}-4,5,6,7-tetrahydro-1H-pyrazolo[4,3-c]pyridin-1-yl]propyl}piperidin-4-yl)carbamate], the concentration for half-maximal inhibition (IC50) amounted to 140 nM.

For `CC(=O)NC1CCN(C[C@H](O)Cn2nc(-c3ccc(C(F)(F)F)c(SCCN4CCCC4)c3)c3c2CCN(C(C)=O)C3)CC1` [Example 363, N-{1-[(2S)-3-(5-Acetyl-3-{3-[(2-pyrrolidin-1-ylethyl)sulfanyl]-4-(trifluoromethyl)phenyl}-4,5,6,7-tetrahydro-1H-pyrazolo[4,3-c]pyridin-1-yl)-2-hydroxypropyl]piperidin-4-yl}acetamide], the IC50 is 160 nM.

For the molecule `CC1CCN(CCSc2cc(-c3nn(C[C@@H](O)CN4CCC(C(N)=O)CC4)c4c3CN(S(C)(=O)=O)CC4)ccc2C(F)(F)F)CC1` [Example 597, 1-[(2S)-2-Hydroxy-3-{3-[3-{[2-(4-methylpiperidin-1-yl)ethyl]sulfanyl}-4-(trifluoromethyl)phenyl]-5-(methylsulfonyl)-4,5,6,7-tetrahydro-1H-pyrazolo[4,3-c]pyridin-1-yl}propyl]piperidine-4-carboxamide], the IC50 turned out to be 110 nM.

For `OC(CN1CCCCC1)Cn1nc(-c2ccc(C(F)(F)F)c(SCCN3CCC(F)(F)C3)c2)c2c1CCNC2` (stereo not drawn) [Example 297, 1-{3-[3-{[2-(3,3-Difluoropyrrolidin-1-yl)ethyl]sulfanyl}-4-(trifluoromethyl)phenyl]-4,5,6,7-tetrahydro-1H-pyrazolo[4,3-c]pyridin-1-yl}-3-piperidin-1-ylpropan-2-ol], the half-inhibitory concentration (IC50) was 3850 nM.

On to `CS(=O)(=O)N1CCc2c(c(-c3ccc(C(F)(F)F)c(SCCN4CCC(N5CCCC5)CC4)c3)nn2CC(O)CN2CCC(O)(c3ccccn3)CC2)C1` (stereo not drawn) [Example 882, 1-(2-Hydroxy-3-{5-(methylsulfonyl)-3-[3-{[2-(4-pyrrolidin-1-ylpiperidin-1-yl)ethyl]sulfanyl}-4-(trifluoromethyl)phenyl]-4,5,6,7-tetrahydro-1H-pyrazolo[4,3-c]pyridin-1-yl}propyl)-4-pyridin-2-ylpiperidin-4-ol], for which the concentration for half-maximal inhibition (IC50) turned out to be 590 nM.

Regarding `CS(=O)(=O)N1CCc2c(c(-c3ccc(C(F)(F)F)c(SCCN4CCCCC4)c3)nn2CC(O)CN2CCN(c3ccccc3O)CC2)C1` (stereo not drawn) [Example 718, 2-(4-{2-Hydroxy-3-[5-(methylsulfonyl)-3-{3-[(2-piperidin-1-ylethyl)sulfanyl]-4-(trifluoromethyl)phenyl}-4,5,6,7-tetrahydro-1H-pyrazolo[4,3-c]pyridin-1-yl]propyl}piperazin-1-yl)phenol], the IC50 worked out at 15 nM.

With `CS(=O)(=O)N1CCc2c(c(-c3ccc(C(F)(F)F)c(SCC(=O)N4CCOCC4)c3)nn2CC(O)CN2CC[C@H](CO)C2)C1` (stereo partly drawn) [Example 465, 1-[(3S)-3-(Hydroxymethyl)pyrrolidin-1-yl]-3-[5-(methylsulfonyl)-3-{3-[(2-morpholin-4-yl-2-oxoethyl)sulfanyl]-4-(trifluoromethyl)phenyl}-4,5,6,7-tetrahydro-1H-pyrazolo[4,3-c]pyridin-1-yl]propan-2-ol], the 50% inhibitory concentration (IC50) came to 810 nM.
